Experimental data published in patent US20240082211A1, “SOLUBLE EPOXIDE HYDROLASE AS A TARGET FOR OCULAR DISEASES” (Indiana University Research and Technology Corporation, priority 2017, published 2024).

What was measured:
[1] = test system: choroidal neovascularization; experiment: Laser-induced choroidal neovascularization (L-CNV) mouse model, CNV lesion volume; conditions: in vivo
[2] = test system: sEH; experiment: Lipid profiling of retina/choroid in L-CNV mice (19,20-EDP/DHDP ratio as sEH activity in vivo); set-up: species or system mouse; conditions: 10 μM intravitreal, 3 days post-laser, vs vehicle treated controls
Description: The L-CNV mouse model and injections were performed as previously described. […] Compounds where indicated were injected a single time immediately post-laser treatment, delivered intravitreally using a 33-gauge needle, in a 0.5 μL volume. SH-11037, t-AUCB, or 7 were dissolved in DMSO then diluted in PBS to a final concentration of 0.5% (v/v) DMSO. Vehicle alone (PBS+0.5% (v/v) DMSO) was used as negative control. Mouse anti-VEGF164 antibody (AF-493-NA, R&D Systems) at a 5 ng dose was used as a positive control for inhibition of neovascularization. Eyes were numbed with tetracaine solution before the injection, and triple antibiotic ointment was used immediately after the injection to prevent infection. Lipid Profiling
C57BL/6J mice underwent laser treatment followed by intravitreal injections of 10 μM SH-11037, 10 μM t-AUCB or vehicle control as described above. Mice were sacrificed 3 days post-laser-treatment, eyes were enucleated and retina/choroid layers were immediately separated and stored at −80° C. Lipid profile analysis was performed by the Lipidomics Core Facility at Wayne State University using standard operating procedures developed by the core as previously described (Maddipati, et al. (2011), Prostaglandins Other Lipid Mediators 94, 59-72).

## O=C(NC12CC3CC(CC(C3)C1)C2)N[C@H]1CC[C@H](Oc2ccc(C(=O)O)cc2)CC1 (relative stereo) [t-AUCB, trans-4-(4-[3-adamantan-1-yl-ureido]-cyclohexyloxy)-benzoic acid]
[1]
  CNV lesion vascular volume: dose-dependently suppressed
[2]
  ratio of 19,20-EDP to 19,20-DHDP in retina/choroid: partially normalized
